These are literature values, as cited in US20260053141A1, “AGROCHEMICAL FORMULATION” (priority 2022, published 2026).

The conditions of this data set: temperature not given.

With butyl acetate and isomers, the water solubility is 0.6-0.8 % w/w.
